In the library only some 2.8% were active in any assay of this set; here they are far more common.
esBAF inh = blocks esBAF chromatin remodeling in mouse ES cells. Bmi1-luciferase knock-in reporter, 24 h; 100% = twice the neutral-well signal. reporter increase, % at 12.5 µM. 350,000 tested, 2% active. AID 602393; in the data active means activation above about 40%;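 further: a rise in the Bmi1 reporter signal indicates esBAF inhibition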
PGC1a acetyl inh = lowers PGC1a acetylation signal in U2OS cells | inhibition, % at 15.6 µM | 350,000 tested, 0.17% active | AlphaScreen anti-acetyl-lysine; with virally co-expressed GCN5 acetyltransferase | AID 651687;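 active means every replicate shows inhibition of at least 40%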
UUG fidelity = modulators of yeast start codon fidelity, primary screen, whole organism, S. cerevisiae, single point, plate reader; S. cerevisiae UUG-firefly luciferase reporter, luminescence/redox ratio; activity score, % at 18.7 µM; 0.13% of 350,000 active; AID 602363, 2012;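 active = replicate mean at a twofold rise or more, about +100% in these data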;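 also: firefly luciferase made from a UUG start codon reports start codon fidelity; reporter light over untreated wells divided by growth signal over untreated wells; some hits fall short of that in this replicate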
E-selectin induc = E-selectin induction on HUVECs; HUVEC E-selectin immunofluorescence imaging; normalized: neutral wells 0, TNF-alpha wells 100; activation, % at 7.58 µM; 260,000 tested, 0.37% active;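 active means mean E-selectin-positive cell signal at least 10% of the positive control, reached in at least 60% of replicates, without over 20% cell loss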
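Assay system: HUVEC primary endothelial cells. Input: 3,000 HUVEC seeded per well. Doses: one compound dose added by pin transfer. Read-out basis: % PE-positive cells. Benchmarks: TNF-alpha high, DMSO low. Detection: immunofluorescence imaging. Buffer or medium: EGM-2, gelatin.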
PglD inh = blocks C. jejuni PglD acetyltransferase activity; purified PglD enzyme, DTNB colorimetric CoA detection; inhibition, % at 12.5 µM; 360,000 tested, 0.098% active; in the data active means inhibition above about 16%, passing the limit was not always enough
C2C12 statin = suppression of simvastatin myotoxicity; rescue of ATP level, % at 7.49 µM; AID 602340; 330,000 tested, 0.78% active; C2C12 myotubes + simvastatin, ATP luminescence, 48 h; scaled: DMSO 0, geranylgeraniol control 100;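 active means mean ATP rescue above about 67%, or every replicate alone reaching that limit, limit read from the data, passing the limit was not always enough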;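 further: myotubes were challenged with 10 µM simvastatin during compound exposure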
Each line names hits and unclear results; the compound was inactive in the other large screens.

CN(C)c1ccc(NC(=O)Cn2cc3c(n2)CCCC3)cc1	esBAF inh 43.8 (no result: PGC1a acetyl inh)
CC(C)NC(=O)N(C)C[C@H]1OCCCC[C@H](C)Oc2ccc(NC(=O)Cc3ccccc3)cc2C(=O)N([C@H](C)CO)C[C@@H]1C	none (no result: esBAF inh, UUG fidelity, C2C12 statin)
CO[C@@H]1CN(C)C(=O)c2ccc(NC(C)=O)cc2OC[C@H](C)N(C(=O)CC2CC2)C[C@@H]1C	none
C=CCn1cccc(C(=O)Nc2ccc(F)cc2)c1=O	esBAF inh 67.2 (no result: E-selectin induc)
Cc1cccnc1NC(=S)Nc1ccc(Br)cc1Cl	esBAF inh 54.9 (no result: PGC1a acetyl inh, E-selectin induc)
Cc1noc(C)c1NC(=O)Nc1ccc2c(c1)C(=O)N([C@@H](C)CO)C[C@@H](C)[C@@H](CN(C)S(=O)(=O)c1cccs1)O2	none (no result: UUG fidelity)
COCCCNc1nc2c([nH]1)c(=O)[nH]c(=O)n2C	C2C12 statin 132.7 (no result: E-selectin induc)
CCOCCCNc1nc2c([nH]1)c(=O)n(C)c(=O)n2C	none (no result: E-selectin induc)
CCC(C)(C)NC(=O)CN(C(=O)CNS(=O)(=O)c1ccccc1)c1ccccc1	C2C12 statin 100.7 (no result: E-selectin induc, PglD inh)
Cn1c(=O)c2c(O)c(Cc3ccccc3)c(=O)[nH]c2n(C)c1=O	esBAF inh 52.6
Clc1ccc(C2=Nc3cc(Cl)ccc3OC2)cc1	none (no result: esBAF inh, UUG fidelity, E-selectin induc, PglD inh, C2C12 statin)
Cc1ccc2c(c1)N=C(c1ccc(Cl)cc1)CO2	esBAF inh 49.2 (no result: E-selectin induc)
c1ccc(C2=Nc3ccccc3OC2)cc1	C2C12 statin 88.7 (no result: E-selectin induc)
O=C(Nc1ccc2c(c1)OCO2)N[C@H]1CC[C@H](CCNC(=O)C2CC2)O[C@@H]1CO	none
N#C[C@H]1N[C@H](CO)[C@@H]1c1ccc(C2=CCCC2)cc1	none
CC(C)NC(=S)N/N=C/c1sc(N2CCCCC2)nc1-c1cccs1	esBAF inh 66.9
Cc1ccsc1/C=N/NC(=O)c1c[nH]c2ccccc12	none (no result: E-selectin induc)
Cc1ccc(/C=N/NC(=O)c2c[nH]c3ccccc23)s1	esBAF inh 59.1 (no result: PGC1a acetyl inh, E-selectin induc)
COc1cc(C)c(Cl)cc1S(=O)(=O)NCc1ccco1	none (no result: E-selectin induc)
CCOc1cc(C)c(Cl)cc1S(=O)(=O)N1CCCC1	C2C12 statin 80.8 (no result: E-selectin induc)
CCOc1cc(C)c(Cl)cc1S(=O)(=O)NCc1ccco1	UUG fidelity 309.7 (no result: E-selectin induc)
CCCOc1cc(C)c(Cl)cc1S(=O)(=O)N(CC)CC	C2C12 statin 108.5 (no result: E-selectin induc)
O=C(O)C[C@@H]1C[C@@H]2c3cc(NS(=O)(=O)c4ccccc4)ccc3O[C@@H]2[C@H](CO)O1	none (no result: esBAF inh, UUG fidelity, PglD inh, C2C12 statin)
CC(C)CCn1c(=O)c2ccccc2n2c(CN3C(=O)NC4(CCC(C)CC4)C3=O)nnc12 (stereo not drawn)	C2C12 statin 93.0 (no result: E-selectin induc)
CCOCCCNC(=O)CCc1nnc2n(CCC(C)C)c(=O)c3ccccc3n12	none
NCC[C@H]1CC[C@H](NC(=O)C2CCCCC2)[C@@H](CO)O1	none
O=C(O)c1cncc(C#CCC2CCCCC2)c1	esBAF inh 61.2 (no result: PGC1a acetyl inh, UUG fidelity, PglD inh)
O=C(NCc1ccccc1)c1cccc(COc2cc(Cl)ccc2Cl)c1	esBAF inh 70.7
O=C(c1cccc(COc2cccc3ccccc23)c1)N1CCCC1	esBAF inh 73.6 (no result: E-selectin induc)
CN(C(=O)c1cccc(COc2ccc(Cl)cc2Cl)c1)c1ccccc1	esBAF inh 72.3 (no result: E-selectin induc)
COC(=O)c1ccccc1NC(=O)c1cccc(COc2ccccc2Cl)c1	none (no result: esBAF inh, E-selectin induc, C2C12 statin)
O=C(NCc1ccccc1)c1cccc(COc2ccccc2Cl)c1	esBAF inh 45.3 (no result: E-selectin induc, C2C12 statin)
O=C(c1ccccc1)N1CCN(CC(O)COc2cccc3ccccc23)CC1 (stereo not drawn)	none (no result: E-selectin induc)
CCC(=O)Nc1ccc2c(c1)C(=O)N(C)C[C@H](OC)[C@H](C)CN(Cc1nccs1)[C@@H](C)CO2	none (no result: UUG fidelity, PglD inh)
Cc1cc(C)n(-c2nc(-c3ccc(Cl)cc3)cs2)n1	esBAF inh 51.4 (no result: E-selectin induc)
CO[C@@H]1CN(C)C(=O)c2cc(NC(=O)Nc3ccccc3)ccc2OC[C@H](C)N(C(=O)CC2CC2)C[C@H]1C	none (no result: UUG fidelity)
O=C(/C=C/c1ccc(O)cc1)c1ccccc1	esBAF inh 58.8 (no result: UUG fidelity, E-selectin induc, PglD inh)
Cc1cccc(C=CC(=O)c2ccccc2)c1	esBAF inh 71.0
Fc1ccc(CO/N=C/C2=C(Cl)c3ccccc3CC2)cc1	PGC1a acetyl inh 79.1 (no result: esBAF inh, UUG fidelity, E-selectin induc, PglD inh, C2C12 statin)
Cc1cnn(C(=S)NCCc2ccccc2)c1	esBAF inh 45.7 (no result: E-selectin induc)
CCCC(=O)Nc1ccc2c(c1)C(=O)N(C)C[C@H](OC)[C@H](C)CN(Cc1ccc(F)cc1)[C@@H](C)CO2	none (no result: UUG fidelity, PglD inh)
CCOc1ccc(N(CC(=O)Nc2ccc(C)c(C)c2)S(C)(=O)=O)cc1	esBAF inh 83.6 (no result: PGC1a acetyl inh, E-selectin induc)
COc1ccc(N(CC(=O)Nc2cccc(SC)c2)S(C)(=O)=O)cc1	esBAF inh 45.3 (no result: E-selectin induc)

Bioassay records (PubChem BioAssay)
